Earlier results as cited in PMC6007947, “Sensitivity of pretargeted immunoPET using ^68Ga-peptide to detect colonic carcinoma liver metastases in a murine xenograft model: Comparison with ^18FDG PET-CT” (Oncotarget, 2018).

Test system: CRC liver metastases

SMILES: OC[C@H]1OC(O)[C@H](F)[C@@H](O)[C@@H]1O (some centres unmarked)
- Reported sensitivity for lesions < 10 mm (lesions < 10 mm): 50%
- Reported sensitivity for detection of CRC liver metastases (overall, before the fall for small lesions): 88%
